This note sets out measurements from paper PMC5979958 (Scientific Reports, 2018).

The target of the assay is T1, biotinylated N-terminal peptide human CXCR4(1–27) (human, UniProt P61073 1-27, biotin introduced N-terminally following an amino-caproic acid (Aca) spacer).
T1 construct: chemokine receptor CXCR4, human, N-terminal residues 1–27; Probe in solution for all peptide spot arrays; also called biotin-CXCR4(1–27); biotinylated CXCR4 N-terminus; source: synthetic peptide (Fmoc-SPPS, HPLC purified)
The assay can be described thus: peptide or protein array; MIF peptides immobilised covalently on a glass slide (SPOT synthesis); probed with 200 µl biotinylated CXCR4(1–27) (10 µg/ml) in blocking buffer for 30 min, washed with TBS containing 0.1% Tween 20, developed with Cy5-streptavidin or HRP-streptavidin; background-corrected signal intensity. The settings on record: both partners purified.

B1: MIF peptide 71–90 (peptide, UniProt P14174 71-90, looked up)
peptide: AQNRSYSKLLCGLLAERLRI
notes: source: SPOT synthesis, immobilised on a glass slide array
As to B1, the binding result was “binds”.

B2: MIF peptide 86–100 (peptide)
peptide: ERLRISPDRVYINYY
notes: also called MIF(86–100); source: synthetic peptide, custom-synthesized by Peptide Specialty Laboratories (PSL, Heidelberg); on the array: SPOT synthesis
Take B2: the binding result is given as “binds”.

B3: MIF peptide 85–99 (peptide, UniProt P14174 85-99, looked up)
peptide: AERLRISPDRVYINY
notes: as for B1
As to B3, the binding result was “binds”.

B4: MIF peptide 74–89 (peptide, UniProt P14174 74-89, looked up)
peptide: RSYSKLLCGLLAERLR
notes: as for B1
Consider B4, for which the binding result is “binds”.

B5: MIF peptide 75–89 (peptide, UniProt P14174 75-89, looked up)
peptide: SYSKLLCGLLAERLR
notes: also called wild-type peptide 75–89; source: SPOT synthesis, immobilised on a glass slide array
On to B5, for which the binding result is reported as “binds”.

B6: MIF peptide 76–90 (peptide)
peptide: YSKLLCGLLAERLRI
notes: also called MIF(76–90); source: SPOT synthesis, immobilised on a glass slide array; free peptide for chemotaxis custom-synthesized by Peptide Specialty Laboratories (PSL, Heidelberg)
B6: the binding result is “binds”.

B7: MIF peptide 78–92 (peptide, UniProt P14174 78-92, looked up)
peptide: KLLCGLLAERLRISP
notes: also called wild-type peptide 78–92; source: SPOT synthesis, immobilised on a glass slide array
In the case of B7, the binding result is “binds”.

B8: MIF peptide 84–98 (peptide, UniProt P14174 84-98, looked up)
peptide: LAERLRISPDRVYIN
notes: also called wild-type peptide 84–98; source: SPOT synthesis, immobilised on a glass slide array
With B8, the binding result is reported as “binds”.

B9: MIF peptide 75–90 (peptide, UniProt P14174 75-90, looked up)
peptide: SYSKLLCGLLAERLRI
notes: also called MIF(75–90); source: SPOT synthesis, immobilised on a glass slide array
On to B9, for which the binding result is “binds”.

B10: MIF peptide 73–90 (peptide, UniProt P14174 73-90, looked up)
peptide: NRSYSKLLCGLLAERLRI
notes: as for B1
On to B10, for which the binding result was “binds”.

B11: MIF peptide 82–96 (peptide, UniProt P14174 82-96, looked up)
peptide: GLLAERLRISPDRVY
notes: as for B1
For the molecule B11, the binding result is reported as “binds”.
